From US10301297B2, “Substituted nicotinimide inhibitors of BTK and their preparation and use in the treatment of cancer, inflammation and autoimmune disease” (GUANGZHOU INNOCARE PHARMA TECH CO., LTD., priority 2013, dated 2019)

Molecular target: SRC (Homo sapiens (Human), UniProt P12931)
Assay: kinase binding screen (affinity beads, qPCR readout) at 1000 nM

inhibition at 1 µM: 23%
SMILES: C=CC(=O)N1CCC(c2ccc(C(N)=O)c(-c3ccc(Oc4ccccc4)cc3)n2)CC1 [Example 3, 6-(1-acryloylpiperidin-4-yl)-2-(4-phenoxyphenyl)nicotinamide]
